Experimental data taken from PMC3307390 (Journal of Immunology (Baltimore, Md. : 1950), 2010).
One block for each molecule: values may come before it.

Key:
DQA1*0401/DQB1*0402 = DQA1*0401/DQB1*0402 (Homo sapiens, UniProt P01909+P01920, A45G/E106S/E183D/E77G/E98D/H199R/I129T/K197E/L107V/L178F/L91T/P87R/P88L/R102E/S185I/S97I/T103D/T217I/V99I/Y41F/Y58G); test: biochemical
DQA1*0501/DQB1*0301 = DQA1*0501/DQB1*0301 (Homo sapiens, UniProt P01909+P01920); test: biochemical
DQA1*0501/DQB1*0201 = DQA1*0501/DQB1*0201 (Homo sapiens, UniProt P01909+P01920, A45G/A70V/D89A/E106A/E77G/E98D/H199R/L107V/N214S/P84L/P87L/T103K/T109R/T172A/T60S/V78E/V99I/Y58L/Y62S/Y69I/Y79F); test: biochemical
[1] = biological target: HLA-DQ DQA1*0401/DQB1*0402 (human (endogenous in EBV-transformed cell line OLL)); test: radioligand binding
[2] = biological target: HLA-DQ DQA1*0501/DQB1*0301 (human (endogenous in EBV-transformed cell line Herluf)); test: radioligand binding

Molecule: CC[C@H](C)[C@H](NC(=O)[C@H](CC(=O)O)NC(=O)[C@@H](N)CCCCN)C(=O)N[C@@H](CC(C)C)C(=O)N[C@@H](CCC(=O)O)C(=O)N[C@@H](CC(=O)O)C(=O)N[C@@H](CCC(=O)O)C(=O)N[C@@H](CCCNC(=N)N)C(=O)N[C@@H](C)C(=O)N[C@@H](C)C(=O)N[C@H](C(=O)N[C@@H](CC(=O)O)C(=O)N[C@H](C(=O)N[C@@H](Cc1ccc(O)cc1)C(=O)N[C@@H](CS)C(=O)O)[C@@H](C)O)C(C)C
IC50 (DQA1*0401/DQB1*0402): 45 nM

Molecule: CC[C@H](C)[C@H](NC(=O)[C@H](C)NC(=O)[C@H](CS)NC(=O)[C@H](C)NC(=O)[C@H](CC(C)C)NC(=O)[C@@H](NC(=O)CNC(=O)[C@H](CC(=O)O)NC(=O)[C@H](CC(=O)O)NC(=O)CNC(=O)[C@@H](N)CCSC)C(C)C)C(=O)N[C@@H](C)C(=O)N[C@H](C(=O)N[C@@H](Cc1c[nH]cn1)C(=O)N[C@@H](C)C(=O)N[C@@H](CCCCN)C(=O)N[C@H](C(=O)N[C@@H](CCCNC(=N)N)C(=O)N[C@@H](CC(=O)O)C(=O)O)[C@@H](C)CC)[C@@H](C)O
IC50 (DQA1*0501/DQB1*0301): 14 nM

Molecule: CC[C@H](C)[C@H](NC(=O)[C@H](CS)NC(=O)[C@@H]1CCCN1C(=O)[C@H](CCC(=O)O)NC(=O)[C@H](CO)NC(=O)CNC(=O)[C@@H](N)Cc1c[nH]cn1)C(=O)N[C@H](C(=O)N[C@@H](Cc1c[nH]cn1)C(=O)N[C@@H](CCCNC(=N)N)C(=O)NCC(=O)N[C@@H](CCCCN)C(=O)N1CCC[C@H]1C(=O)N[C@@H](Cc1ccccc1)C(=O)N[C@@H](CCC(N)=O)C(=O)N[C@@H](CC(C)C)C(=O)N[C@@H](CCC(=O)O)C(=O)N[C@@H](C)C(=O)N[C@H](C(=O)O)C(C)C)[C@@H](C)CC
IC50 (DQA1*0501/DQB1*0301): 16 nM

Molecule: CSCC[C@H](NC(=O)[C@H](CCCNC(=N)N)NC(=O)[C@H](CCSC)NC(=O)[C@H](CCCCN)NC(=O)[C@H](CO)NC(=O)[C@@H](NC(=O)[C@@H]1CCCN1C(=O)[C@@H](N)CCCCN)C(C)C)C(=O)N[C@@H](C)C(=O)N[C@H](C(=O)N1CCC[C@H]1C(=O)N[C@@H](CC(C)C)C(=O)N[C@@H](CC(C)C)C(=O)N[C@@H](CCSC)C(=O)N[C@@H](CCC(N)=O)C(=O)N[C@@H](C)C(=O)N[C@@H](CC(C)C)C(=O)N1CCC[C@H]1C(=O)O)[C@@H](C)O
IC50 (DQA1*0501/DQB1*0201): 30 nM

IC50 [1]: 33 nM
Molecule: EEDIEIIPIQEEEY [Homo sapiens CD20 249 peptide …, unlabeled]

IC50 [2]: 18 nM
Molecule: YAHAAHAAHAAHAAHAA [ROIV reiterative nonnatural ligand …, unlabeled]

IC50 [1]: 45 nM
Molecule: KDILEDERAAVDTYC [H. sapiens DRB1*0402 peptide …]
